Assay results reported in ChEMBL document CHEMBL5131515, “Identification of Pyridinyltriazine Derivatives as Potent panFGFR Inhibitors against Gatekeeper Mutants for Overcoming Drug Resistance” (J Med Chem, 2022).

Protein sequences, listed by entry. Tags and fused reporters are not part of them. Lines headed by an entry give the natural chain unless they say otherwise; changes in a name come on top.
UniProt Q08345: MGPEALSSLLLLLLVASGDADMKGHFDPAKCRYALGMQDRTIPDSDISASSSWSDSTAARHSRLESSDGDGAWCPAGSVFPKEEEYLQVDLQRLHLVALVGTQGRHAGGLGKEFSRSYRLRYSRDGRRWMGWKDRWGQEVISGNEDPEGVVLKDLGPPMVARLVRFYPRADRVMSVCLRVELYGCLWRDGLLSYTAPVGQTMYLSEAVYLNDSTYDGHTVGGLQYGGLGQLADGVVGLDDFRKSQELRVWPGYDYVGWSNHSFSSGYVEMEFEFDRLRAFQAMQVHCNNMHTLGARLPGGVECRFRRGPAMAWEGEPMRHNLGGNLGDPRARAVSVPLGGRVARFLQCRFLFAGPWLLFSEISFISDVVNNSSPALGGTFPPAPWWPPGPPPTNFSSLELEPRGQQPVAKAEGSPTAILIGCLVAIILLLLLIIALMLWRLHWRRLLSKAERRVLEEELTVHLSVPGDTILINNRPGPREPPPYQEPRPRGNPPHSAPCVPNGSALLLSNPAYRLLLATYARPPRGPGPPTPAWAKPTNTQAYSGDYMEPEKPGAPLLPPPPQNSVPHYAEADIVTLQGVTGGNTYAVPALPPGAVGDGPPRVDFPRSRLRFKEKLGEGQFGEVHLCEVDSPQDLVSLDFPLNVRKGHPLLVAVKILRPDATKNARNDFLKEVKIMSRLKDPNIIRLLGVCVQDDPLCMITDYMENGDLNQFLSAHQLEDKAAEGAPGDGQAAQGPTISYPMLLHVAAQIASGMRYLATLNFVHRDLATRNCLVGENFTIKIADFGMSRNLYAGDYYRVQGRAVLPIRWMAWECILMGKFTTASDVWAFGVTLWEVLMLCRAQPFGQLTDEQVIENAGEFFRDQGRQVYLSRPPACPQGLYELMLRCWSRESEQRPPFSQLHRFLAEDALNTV
UniProt P07948: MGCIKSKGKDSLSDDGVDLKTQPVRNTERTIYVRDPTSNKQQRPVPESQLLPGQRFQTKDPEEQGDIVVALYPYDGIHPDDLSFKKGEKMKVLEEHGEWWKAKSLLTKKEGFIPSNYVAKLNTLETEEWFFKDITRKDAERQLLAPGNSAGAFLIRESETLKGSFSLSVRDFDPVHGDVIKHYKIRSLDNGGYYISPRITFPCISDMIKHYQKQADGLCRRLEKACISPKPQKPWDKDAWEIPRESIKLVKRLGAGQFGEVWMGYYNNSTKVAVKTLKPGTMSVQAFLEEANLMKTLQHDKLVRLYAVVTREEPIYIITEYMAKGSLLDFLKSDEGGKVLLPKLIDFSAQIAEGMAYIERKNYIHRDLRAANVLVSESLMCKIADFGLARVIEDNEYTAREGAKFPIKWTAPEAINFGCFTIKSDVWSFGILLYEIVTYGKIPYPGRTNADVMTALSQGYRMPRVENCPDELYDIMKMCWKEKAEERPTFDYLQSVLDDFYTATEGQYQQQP
UniProt P06239: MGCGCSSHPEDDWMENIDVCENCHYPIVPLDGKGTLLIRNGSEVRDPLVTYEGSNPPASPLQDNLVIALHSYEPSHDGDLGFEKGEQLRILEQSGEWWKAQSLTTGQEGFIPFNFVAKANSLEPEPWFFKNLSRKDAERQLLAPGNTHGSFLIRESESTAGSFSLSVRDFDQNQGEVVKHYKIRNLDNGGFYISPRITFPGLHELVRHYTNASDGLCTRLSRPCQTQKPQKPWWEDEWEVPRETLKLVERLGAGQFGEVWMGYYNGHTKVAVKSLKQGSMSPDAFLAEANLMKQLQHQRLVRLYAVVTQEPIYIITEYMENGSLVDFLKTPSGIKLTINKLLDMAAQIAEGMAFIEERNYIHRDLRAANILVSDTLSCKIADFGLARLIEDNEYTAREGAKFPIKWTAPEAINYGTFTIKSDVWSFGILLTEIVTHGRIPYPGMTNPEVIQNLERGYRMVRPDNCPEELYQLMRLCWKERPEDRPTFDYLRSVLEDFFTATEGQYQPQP
UniProt P08922: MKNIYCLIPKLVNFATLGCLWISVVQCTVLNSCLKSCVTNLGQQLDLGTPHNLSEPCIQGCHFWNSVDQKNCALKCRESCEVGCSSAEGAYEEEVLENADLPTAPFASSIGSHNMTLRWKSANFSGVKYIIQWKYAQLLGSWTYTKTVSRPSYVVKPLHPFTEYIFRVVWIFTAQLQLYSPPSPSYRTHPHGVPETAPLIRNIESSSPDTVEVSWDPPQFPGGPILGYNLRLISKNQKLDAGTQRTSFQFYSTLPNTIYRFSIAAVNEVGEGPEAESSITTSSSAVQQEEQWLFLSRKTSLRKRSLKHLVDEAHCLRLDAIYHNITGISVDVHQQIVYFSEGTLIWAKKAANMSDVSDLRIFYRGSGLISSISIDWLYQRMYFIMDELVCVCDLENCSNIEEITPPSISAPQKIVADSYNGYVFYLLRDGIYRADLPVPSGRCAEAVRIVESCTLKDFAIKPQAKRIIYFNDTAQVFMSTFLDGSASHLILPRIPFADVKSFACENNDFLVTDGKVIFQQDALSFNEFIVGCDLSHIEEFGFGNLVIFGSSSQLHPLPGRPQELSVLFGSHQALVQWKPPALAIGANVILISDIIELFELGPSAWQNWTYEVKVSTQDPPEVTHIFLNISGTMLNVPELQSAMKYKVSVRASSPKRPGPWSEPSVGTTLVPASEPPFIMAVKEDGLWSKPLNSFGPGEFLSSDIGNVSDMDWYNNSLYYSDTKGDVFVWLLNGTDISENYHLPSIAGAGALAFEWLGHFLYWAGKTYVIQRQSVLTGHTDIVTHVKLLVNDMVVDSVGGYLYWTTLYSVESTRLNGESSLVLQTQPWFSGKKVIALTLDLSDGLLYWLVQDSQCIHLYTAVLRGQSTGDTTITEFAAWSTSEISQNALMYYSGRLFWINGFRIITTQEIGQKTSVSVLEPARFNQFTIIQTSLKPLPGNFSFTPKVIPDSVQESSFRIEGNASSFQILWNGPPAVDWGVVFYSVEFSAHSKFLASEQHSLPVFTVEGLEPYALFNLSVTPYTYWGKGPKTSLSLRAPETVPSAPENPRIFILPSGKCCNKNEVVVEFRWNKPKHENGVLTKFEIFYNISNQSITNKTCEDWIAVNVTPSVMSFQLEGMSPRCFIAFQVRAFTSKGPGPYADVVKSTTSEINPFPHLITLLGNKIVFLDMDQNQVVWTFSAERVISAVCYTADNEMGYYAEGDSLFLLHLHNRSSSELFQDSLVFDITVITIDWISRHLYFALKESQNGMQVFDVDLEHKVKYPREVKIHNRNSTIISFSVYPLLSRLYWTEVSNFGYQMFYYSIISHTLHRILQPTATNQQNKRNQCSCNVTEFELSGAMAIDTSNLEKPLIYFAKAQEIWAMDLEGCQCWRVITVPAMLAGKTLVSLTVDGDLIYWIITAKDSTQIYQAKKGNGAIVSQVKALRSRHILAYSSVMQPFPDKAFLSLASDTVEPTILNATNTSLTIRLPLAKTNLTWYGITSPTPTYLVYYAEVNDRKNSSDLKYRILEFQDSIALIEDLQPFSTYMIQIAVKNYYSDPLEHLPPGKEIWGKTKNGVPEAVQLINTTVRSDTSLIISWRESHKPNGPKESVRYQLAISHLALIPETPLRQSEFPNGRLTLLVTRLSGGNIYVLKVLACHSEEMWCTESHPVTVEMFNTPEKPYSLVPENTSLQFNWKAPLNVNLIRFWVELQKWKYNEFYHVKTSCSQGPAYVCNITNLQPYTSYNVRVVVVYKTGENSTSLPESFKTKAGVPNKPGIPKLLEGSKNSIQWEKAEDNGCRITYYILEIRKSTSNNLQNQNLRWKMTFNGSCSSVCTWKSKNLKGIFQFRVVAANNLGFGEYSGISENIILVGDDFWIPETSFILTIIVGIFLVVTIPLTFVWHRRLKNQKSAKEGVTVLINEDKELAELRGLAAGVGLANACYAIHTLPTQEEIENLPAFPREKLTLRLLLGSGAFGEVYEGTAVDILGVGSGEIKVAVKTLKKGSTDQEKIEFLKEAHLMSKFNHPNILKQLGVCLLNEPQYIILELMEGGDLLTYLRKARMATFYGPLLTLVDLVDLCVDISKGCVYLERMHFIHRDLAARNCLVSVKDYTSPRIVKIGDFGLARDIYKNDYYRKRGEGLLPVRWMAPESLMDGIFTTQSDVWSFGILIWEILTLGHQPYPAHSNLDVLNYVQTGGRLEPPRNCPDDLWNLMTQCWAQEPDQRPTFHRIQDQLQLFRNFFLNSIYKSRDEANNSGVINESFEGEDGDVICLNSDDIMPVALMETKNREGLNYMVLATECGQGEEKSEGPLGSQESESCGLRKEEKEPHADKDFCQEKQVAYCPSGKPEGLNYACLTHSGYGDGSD
UniProt Q00534, whole entry: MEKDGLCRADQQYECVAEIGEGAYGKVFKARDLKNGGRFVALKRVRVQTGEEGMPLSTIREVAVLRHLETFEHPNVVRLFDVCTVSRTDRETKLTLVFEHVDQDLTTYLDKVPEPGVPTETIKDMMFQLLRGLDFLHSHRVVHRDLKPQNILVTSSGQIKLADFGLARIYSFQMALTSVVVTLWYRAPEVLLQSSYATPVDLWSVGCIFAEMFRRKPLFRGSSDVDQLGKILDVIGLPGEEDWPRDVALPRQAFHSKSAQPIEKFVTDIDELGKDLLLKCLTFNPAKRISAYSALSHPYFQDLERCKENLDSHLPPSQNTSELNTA
UniProt Q00536: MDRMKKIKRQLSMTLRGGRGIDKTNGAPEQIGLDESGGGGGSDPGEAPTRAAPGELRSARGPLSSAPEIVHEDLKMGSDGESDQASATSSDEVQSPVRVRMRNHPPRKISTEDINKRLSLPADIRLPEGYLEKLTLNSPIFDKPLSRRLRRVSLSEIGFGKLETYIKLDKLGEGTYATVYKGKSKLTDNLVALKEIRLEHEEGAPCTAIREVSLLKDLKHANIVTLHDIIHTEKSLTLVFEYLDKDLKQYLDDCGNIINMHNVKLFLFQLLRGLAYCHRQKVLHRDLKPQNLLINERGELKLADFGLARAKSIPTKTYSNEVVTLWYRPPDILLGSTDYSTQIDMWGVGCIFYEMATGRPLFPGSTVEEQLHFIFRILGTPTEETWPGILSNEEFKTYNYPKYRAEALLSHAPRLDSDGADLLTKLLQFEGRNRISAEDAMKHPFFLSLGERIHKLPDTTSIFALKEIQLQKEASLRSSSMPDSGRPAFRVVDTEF
UniProt P35916, whole entry: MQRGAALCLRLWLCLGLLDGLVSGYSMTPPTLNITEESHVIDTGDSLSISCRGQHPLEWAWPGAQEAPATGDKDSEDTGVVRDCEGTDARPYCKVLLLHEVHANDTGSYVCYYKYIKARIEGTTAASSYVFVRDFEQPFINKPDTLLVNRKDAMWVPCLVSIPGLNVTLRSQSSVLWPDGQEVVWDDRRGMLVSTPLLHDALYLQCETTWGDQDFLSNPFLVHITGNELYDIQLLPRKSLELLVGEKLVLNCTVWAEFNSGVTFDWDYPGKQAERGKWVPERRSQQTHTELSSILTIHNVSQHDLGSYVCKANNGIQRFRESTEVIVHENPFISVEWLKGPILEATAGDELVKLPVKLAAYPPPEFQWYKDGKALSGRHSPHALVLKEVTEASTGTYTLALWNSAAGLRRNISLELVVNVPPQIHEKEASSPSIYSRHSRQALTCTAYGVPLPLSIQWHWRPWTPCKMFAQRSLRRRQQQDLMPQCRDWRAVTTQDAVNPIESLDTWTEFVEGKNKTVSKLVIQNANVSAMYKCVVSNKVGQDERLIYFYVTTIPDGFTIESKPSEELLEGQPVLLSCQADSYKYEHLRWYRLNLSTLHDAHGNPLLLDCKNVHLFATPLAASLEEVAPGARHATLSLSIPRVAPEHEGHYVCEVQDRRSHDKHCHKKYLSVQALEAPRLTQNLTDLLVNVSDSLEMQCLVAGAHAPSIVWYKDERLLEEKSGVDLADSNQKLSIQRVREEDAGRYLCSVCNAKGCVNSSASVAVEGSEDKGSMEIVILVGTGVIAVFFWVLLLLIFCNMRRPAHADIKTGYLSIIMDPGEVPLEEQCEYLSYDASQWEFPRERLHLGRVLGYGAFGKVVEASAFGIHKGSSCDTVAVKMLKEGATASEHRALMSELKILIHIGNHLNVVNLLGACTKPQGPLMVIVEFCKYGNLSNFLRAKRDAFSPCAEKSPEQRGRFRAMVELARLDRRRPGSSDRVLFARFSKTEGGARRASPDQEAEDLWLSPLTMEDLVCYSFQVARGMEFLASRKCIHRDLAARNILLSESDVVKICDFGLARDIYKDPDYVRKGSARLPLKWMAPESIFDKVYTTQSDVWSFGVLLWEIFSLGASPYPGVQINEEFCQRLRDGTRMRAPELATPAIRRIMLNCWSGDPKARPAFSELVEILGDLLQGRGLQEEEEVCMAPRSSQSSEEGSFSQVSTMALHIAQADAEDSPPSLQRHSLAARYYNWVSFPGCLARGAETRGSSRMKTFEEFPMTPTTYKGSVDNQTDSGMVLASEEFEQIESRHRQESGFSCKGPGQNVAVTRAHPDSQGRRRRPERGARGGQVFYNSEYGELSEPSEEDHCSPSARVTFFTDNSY

Tests used:
[1] = biological target: Epithelial discoidin domain-containing receptor 1 (Homo sapiens) (UniProt Q08345); test: Inhibition of DDR1 (unknown origin) at 1 uM by kinase-profiling analysis
[2] = biological target: Cyclin-dependent kinase 17 (Homo sapiens) (UniProt Q00537); test: Inhibition of PCTAIRE2 (unknown origin) at 1 uM by kinase-profiling analysis
[3] = biological target: Tyrosine-protein kinase Lyn (Homo sapiens) (UniProt P07948); test: Inhibition of LYN (unknown origin) at 1 uM by kinase-profiling analysis
[4] = biological target: Tyrosine-protein kinase Lck (Homo sapiens) (UniProt P06239); test: Inhibition of LCK (unknown origin) at 1 uM by kinase-profiling analysis
[5] = biological target: Proto-oncogene tyrosine-protein kinase ROS (Homo sapiens) (UniProt P08922); test: Inhibition of ROS (unknown origin) at 1 uM by kinase-profiling analysis
[6] = biological target: T1, Serine/threonine-protein kinase TAO1 (Homo sapiens) (UniProt Q7L7X3); test: Inhibition of TAO1 (unknown origin) at 1 uM by kinase-profiling analysis
T1 sequence (whole entry): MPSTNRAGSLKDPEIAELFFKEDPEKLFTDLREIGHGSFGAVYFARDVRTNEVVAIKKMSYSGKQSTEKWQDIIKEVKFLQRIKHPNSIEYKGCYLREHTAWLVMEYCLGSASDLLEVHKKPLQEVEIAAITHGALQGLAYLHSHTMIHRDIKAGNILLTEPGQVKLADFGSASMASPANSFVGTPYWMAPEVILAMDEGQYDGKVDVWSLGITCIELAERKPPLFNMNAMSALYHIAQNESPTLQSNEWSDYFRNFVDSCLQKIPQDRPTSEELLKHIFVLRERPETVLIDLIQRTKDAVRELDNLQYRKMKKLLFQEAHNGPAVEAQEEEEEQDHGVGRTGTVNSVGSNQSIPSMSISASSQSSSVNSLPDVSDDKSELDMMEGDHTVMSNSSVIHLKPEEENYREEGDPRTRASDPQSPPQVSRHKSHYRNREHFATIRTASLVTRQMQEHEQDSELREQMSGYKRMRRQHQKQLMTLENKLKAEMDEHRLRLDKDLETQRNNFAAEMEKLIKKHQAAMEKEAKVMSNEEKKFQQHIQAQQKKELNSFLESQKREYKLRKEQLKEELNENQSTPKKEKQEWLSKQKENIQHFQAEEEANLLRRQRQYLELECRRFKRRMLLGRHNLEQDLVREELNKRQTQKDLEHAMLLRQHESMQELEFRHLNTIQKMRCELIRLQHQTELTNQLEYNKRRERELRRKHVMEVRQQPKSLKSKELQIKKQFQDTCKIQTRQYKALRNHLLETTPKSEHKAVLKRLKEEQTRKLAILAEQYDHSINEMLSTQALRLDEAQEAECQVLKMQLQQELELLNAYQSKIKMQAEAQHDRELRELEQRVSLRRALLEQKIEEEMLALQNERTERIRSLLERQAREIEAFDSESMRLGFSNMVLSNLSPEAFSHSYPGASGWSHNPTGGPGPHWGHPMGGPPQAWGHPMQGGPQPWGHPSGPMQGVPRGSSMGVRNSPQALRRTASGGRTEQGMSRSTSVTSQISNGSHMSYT

[7] = biological target: T2, Serine/threonine-protein kinase MAK (Homo sapiens) (UniProt P20794); test: Inhibition of MAK (unknown origin) at 1 uM by kinase-profiling analysis
T2 sequence (whole entry): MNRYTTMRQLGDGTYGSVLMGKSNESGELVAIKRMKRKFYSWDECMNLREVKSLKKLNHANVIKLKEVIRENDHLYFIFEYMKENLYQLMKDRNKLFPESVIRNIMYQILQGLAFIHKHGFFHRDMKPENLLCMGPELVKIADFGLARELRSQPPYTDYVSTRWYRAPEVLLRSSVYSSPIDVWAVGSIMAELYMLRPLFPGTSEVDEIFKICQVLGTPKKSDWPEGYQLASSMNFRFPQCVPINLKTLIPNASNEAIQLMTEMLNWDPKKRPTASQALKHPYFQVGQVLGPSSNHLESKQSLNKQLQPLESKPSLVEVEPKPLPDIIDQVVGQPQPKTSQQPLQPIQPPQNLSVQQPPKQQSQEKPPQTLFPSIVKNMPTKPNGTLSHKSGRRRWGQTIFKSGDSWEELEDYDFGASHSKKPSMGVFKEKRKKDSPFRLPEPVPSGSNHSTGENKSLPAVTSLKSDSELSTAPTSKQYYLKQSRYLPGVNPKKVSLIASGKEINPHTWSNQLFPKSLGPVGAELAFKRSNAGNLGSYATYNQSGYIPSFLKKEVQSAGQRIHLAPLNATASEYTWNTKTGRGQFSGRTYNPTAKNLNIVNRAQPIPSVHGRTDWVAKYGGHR

[8] = biological target: Cyclin-dependent kinase 4 (Homo sapiens) (UniProt P11802); test: Inhibition of CDK4 (unknown origin) at 1 uM by kinase-profiling analysis
[9] = biological target: Phosphorylase b kinase gamma catalytic chain, skeletal muscle/heart isoform (Homo sapiens) (UniProt Q16816); test: Inhibition of PHKg1 (unknown origin) at 1 uM by kinase-profiling analysis
[10] = biological target: Dual specificity protein kinase CLK2 (Homo sapiens) (UniProt P49760); test: Inhibition of CLK2 (unknown origin) at 1 uM by kinase-profiling analysis
[11] = biological target: Cyclin-dependent kinase 6 (Homo sapiens) (UniProt Q00534); test: Inhibition of CDK6 (unknown origin) at 1 uM by kinase-profiling analysis
[12] = biological target: Cyclin-dependent kinase 16 (Homo sapiens) (UniProt Q00536); test: Inhibition of PCTAIRE1 (unknown origin) at 1 uM by kinase-profiling analysis
[13] = biological target: Vascular endothelial growth factor receptor 2 (Homo sapiens) (UniProt P35968); test: Inhibition of KDR (unknown origin) at 1 uM by kinase-profiling analysis
[14] = biological target: Mast/stem cell growth factor receptor Kit (Homo sapiens) (UniProt P10721); test: Inhibition of KIT (unknown origin) at 1 uM by kinase-profiling analysis
[15] = biological target: T3, Discoidin domain-containing receptor 2 (Homo sapiens) (UniProt Q16832); test: Inhibition of DDR2 (unknown origin) at 1 uM by kinase-profiling analysis
T3 sequence (whole entry): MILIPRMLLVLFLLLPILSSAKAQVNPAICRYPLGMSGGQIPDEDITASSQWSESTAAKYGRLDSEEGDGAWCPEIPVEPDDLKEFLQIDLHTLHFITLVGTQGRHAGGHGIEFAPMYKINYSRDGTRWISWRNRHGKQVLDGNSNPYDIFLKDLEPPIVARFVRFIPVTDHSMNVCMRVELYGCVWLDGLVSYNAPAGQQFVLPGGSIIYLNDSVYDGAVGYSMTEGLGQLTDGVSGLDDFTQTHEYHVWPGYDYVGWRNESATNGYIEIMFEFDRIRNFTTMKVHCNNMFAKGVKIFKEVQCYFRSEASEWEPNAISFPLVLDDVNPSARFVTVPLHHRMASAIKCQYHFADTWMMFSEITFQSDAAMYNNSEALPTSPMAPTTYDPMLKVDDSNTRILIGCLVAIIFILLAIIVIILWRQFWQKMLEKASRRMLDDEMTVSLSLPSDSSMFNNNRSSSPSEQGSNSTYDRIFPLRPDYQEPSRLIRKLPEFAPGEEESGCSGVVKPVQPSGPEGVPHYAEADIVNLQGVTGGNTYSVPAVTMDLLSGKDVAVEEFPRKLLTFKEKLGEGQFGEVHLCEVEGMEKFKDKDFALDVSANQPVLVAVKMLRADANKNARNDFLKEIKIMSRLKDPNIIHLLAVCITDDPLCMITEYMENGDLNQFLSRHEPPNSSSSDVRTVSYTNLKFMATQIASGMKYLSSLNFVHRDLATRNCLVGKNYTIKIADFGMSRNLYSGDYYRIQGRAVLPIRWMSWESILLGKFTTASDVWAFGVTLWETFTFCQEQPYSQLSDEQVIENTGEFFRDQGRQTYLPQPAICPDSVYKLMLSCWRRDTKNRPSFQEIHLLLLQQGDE

[16] = biological target: Vascular endothelial growth factor receptor 1 (Homo sapiens) (UniProt P17948); test: Inhibition of FLT1 (unknown origin) at 1 uM by kinase-profiling analysis
[17] = biological target: Vascular endothelial growth factor receptor 3 (Homo sapiens) (UniProt P35916); test: Inhibition of FLT4 (unknown origin) at 1 uM by kinase-profiling analysis
[18] = biological target: T4, Mitogen-activated protein kinase kinase kinase 3 (Homo sapiens) (UniProt Q99759); test: Inhibition of MAP3K3 (unknown origin) at 1 uM by kinase-profiling analysis
T4 sequence (whole entry): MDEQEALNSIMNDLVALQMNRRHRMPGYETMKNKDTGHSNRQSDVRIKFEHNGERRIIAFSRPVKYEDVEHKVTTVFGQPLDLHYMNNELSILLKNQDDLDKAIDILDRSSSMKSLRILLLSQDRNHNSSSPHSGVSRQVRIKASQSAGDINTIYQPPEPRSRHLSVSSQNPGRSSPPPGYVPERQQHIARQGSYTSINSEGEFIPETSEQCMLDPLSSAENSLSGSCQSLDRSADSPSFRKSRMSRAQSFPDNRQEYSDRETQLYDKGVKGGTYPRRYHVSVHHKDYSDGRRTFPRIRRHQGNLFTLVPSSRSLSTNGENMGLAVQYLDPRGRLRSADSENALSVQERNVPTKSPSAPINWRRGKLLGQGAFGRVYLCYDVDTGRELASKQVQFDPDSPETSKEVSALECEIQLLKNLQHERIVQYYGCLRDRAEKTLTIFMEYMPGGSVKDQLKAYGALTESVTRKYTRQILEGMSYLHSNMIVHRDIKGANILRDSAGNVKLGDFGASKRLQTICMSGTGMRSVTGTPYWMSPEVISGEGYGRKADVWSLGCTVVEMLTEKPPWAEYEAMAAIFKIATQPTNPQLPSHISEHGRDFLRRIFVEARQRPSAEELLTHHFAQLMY

| Compound | inhibition [1] | inhibition [2] | inhibition [3] | inhibition [4] | inhibition [5] | inhibition [6] | inhibition [7] | inhibition [8] | inhibition [9] | inhibition [10] | inhibition [11] | inhibition [12] | inhibition [13] | inhibition [14] | inhibition [15] | inhibition [16] | inhibition [17] | inhibition [18] |
| --- | --- | --- | --- | --- | --- | --- | --- | --- | --- | --- | --- | --- | --- | --- | --- | --- | --- | --- |
| CCN1CCN(c2ccc(Nc3ncnc(-c4cccnc4Nc4c(Cl)c(OC)cc(OC)c4Cl)n3)cc2)CC1 | 98% | 97.7% | 95% | 94.7% | 99% | 98.2% | 97.9% | 97.1% | 93.6% | 92.8% | 92.5% | 91.1% |  |  |  |  |  |  |
| COc1cc(OC)c(Cl)c(Nc2ncccc2-c2ncnc(Nc3cnn(C4CCN(C(C)C)CC4)c3)n2)c1Cl | 99.7% | 91.7% | 93.9% | 90.5% |  |  |  |  |  |  |  |  | 97.4% | 92.3% | 92.3% | 92% | 91.7% | 91.1% |
